Data on one molecule can be found in PubChem BioAssay AID652189 (Johns Hopkins Ion Channel Center, 2013).

Protein sequences, listed by entry. Tags and fused reporters are not part of them. Lines headed by an entry give the natural chain unless they say otherwise; changes in a name come on top.
UniProt Q8BHY3: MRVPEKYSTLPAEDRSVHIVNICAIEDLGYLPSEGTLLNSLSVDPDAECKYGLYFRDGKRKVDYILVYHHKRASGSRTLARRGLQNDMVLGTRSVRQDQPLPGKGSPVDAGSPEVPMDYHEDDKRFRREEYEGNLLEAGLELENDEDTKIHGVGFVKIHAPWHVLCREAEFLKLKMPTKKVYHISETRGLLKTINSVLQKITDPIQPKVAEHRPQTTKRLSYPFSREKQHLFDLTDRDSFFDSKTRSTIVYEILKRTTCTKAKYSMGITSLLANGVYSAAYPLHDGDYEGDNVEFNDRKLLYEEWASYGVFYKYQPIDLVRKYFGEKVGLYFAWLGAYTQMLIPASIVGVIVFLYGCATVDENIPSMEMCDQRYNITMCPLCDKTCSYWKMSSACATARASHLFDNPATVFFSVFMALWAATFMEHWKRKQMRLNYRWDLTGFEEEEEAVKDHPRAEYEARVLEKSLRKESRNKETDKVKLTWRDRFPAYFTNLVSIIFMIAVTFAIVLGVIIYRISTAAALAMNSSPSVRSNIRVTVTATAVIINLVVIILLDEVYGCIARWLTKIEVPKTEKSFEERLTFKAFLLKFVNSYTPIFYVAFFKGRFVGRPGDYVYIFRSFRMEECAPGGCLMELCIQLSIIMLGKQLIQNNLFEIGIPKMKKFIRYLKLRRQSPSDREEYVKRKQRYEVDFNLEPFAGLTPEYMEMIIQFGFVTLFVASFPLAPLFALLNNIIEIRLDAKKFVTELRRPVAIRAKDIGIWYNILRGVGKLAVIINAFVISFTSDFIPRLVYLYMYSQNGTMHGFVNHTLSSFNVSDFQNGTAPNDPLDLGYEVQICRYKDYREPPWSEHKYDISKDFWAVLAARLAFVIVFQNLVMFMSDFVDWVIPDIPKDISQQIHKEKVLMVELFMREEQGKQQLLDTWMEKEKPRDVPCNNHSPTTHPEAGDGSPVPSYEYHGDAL

This is a selection; strong and weak results do not stand in their true shares. Activity calls are given as the source filed them.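 The calls were made as follows: active = mean duplicate percent inhibition, scaled so buffer wells are 0 and the reference blocker 100, over three buffer SD above buffer mean; inactive = the rest.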

The assay deals with Anoctamin-1 (Mus musculus) (UniProt Q8BHY3). Description: TMEM16A chloride channel inhibitors, confirmation, cell-based, re-confirmation (AID 652189). The conditions noted are these: HEK293 TMEM16A/YFP-H148Q, iodide quench fluorescence; at 10 µM; active compounds read high; ionomycin added to raise cell calcium.
As to `CCc1nc2c(n1)c1c(non1O)c1c2no[n+]1[O-]`, the inhibition was active: 17.5%.
